Assay [1] has as its target Kappa-type opioid receptor (Cavia porcellus, UniProt P41144). Type of assay: cell membranes, Brain, Membrane.
In a further assay the target is Mu-type opioid receptor (Cavia porcellus, UniProt P97266). Type of assay: cell membranes, Brain, Membrane.

Chains of the proteins cited; added tags and fusions are not shown. Lines headed by an entry give the natural chain unless they say otherwise; changes in a name come on top.
UniProt P41144: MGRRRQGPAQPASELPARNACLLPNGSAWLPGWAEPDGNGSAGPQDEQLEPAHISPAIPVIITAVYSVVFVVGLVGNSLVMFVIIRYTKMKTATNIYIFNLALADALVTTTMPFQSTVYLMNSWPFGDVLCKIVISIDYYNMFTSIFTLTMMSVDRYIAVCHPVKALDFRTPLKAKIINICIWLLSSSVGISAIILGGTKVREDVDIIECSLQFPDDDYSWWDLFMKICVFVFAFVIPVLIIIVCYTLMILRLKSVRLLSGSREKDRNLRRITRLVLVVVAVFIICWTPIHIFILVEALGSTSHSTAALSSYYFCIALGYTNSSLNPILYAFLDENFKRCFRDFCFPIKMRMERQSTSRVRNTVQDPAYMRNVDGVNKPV
UniProt P97266, whole entry: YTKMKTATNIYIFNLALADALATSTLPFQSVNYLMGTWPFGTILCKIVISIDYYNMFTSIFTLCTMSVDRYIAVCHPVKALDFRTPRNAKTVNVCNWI

Here are results for 2 molecules from ChEMBL document CHEMBL1130597, “Design of a high affinity peptidomimetic opioid agonist from peptide pharmacophore models” (Bioorg Med Chem Lett, 1998).

Consider `CC1(C)SSC[C@@H](NC(=O)[C@@H](N)Cc2ccc(O)cc2)C(=O)N[C@@H](Cc2ccccc2)C(=O)N[C@@H]1C(N)=O`, for which the values for the Ki (in assay [1]; on Mu-type opioid receptor) were more than 10000 nM and 7.01 nM, respectively.

For `CC1(C)SSC[C@H](NC(=O)[C@@H](N)Cc2ccc(O)cc2)C(=O)N[C@@H](Cc2ccccc2)C(=O)N[C@@H]1C(=O)O`, the Ki (commonly the equilibrium dissociation constant of an inhibitor or competing ligand from its target) in assay [1] is more than 1000 nM.
